The entries are a selection whose mix differs from that of the whole data set. Some of these compounds have results that are not shown, active ones among them. The source made the active and inactive calls. No stated cut-off is given here; in the data, active means inhibition above about 30%; inactive means the rest, inconclusive results apart.

The assay can be described thus: inhibitors of arbovirus infection in cells – cell-based, full library, 10K replicate subset, primary screen (AID 1251). The settings on record: arbovirus infection cell-based antiviral screen; at 10 µM; active compounds read high.
With `C=CCN1CCN(CCOC(=O)C(O)(c2ccccc2)c2ccccc2)CC1`, the inhibition (as a rule, the drop in the measured response relative to a control, in per cent) was inactive: 1.13%. In the case of `CCN1CCCC(OC(=O)C2(O)c3ccccc3C=Cc3ccccc32)C1` (centres undefined), the inhibition is inactive: 13.9%. The value for `Cc1ccccc1C(=O)NCC1(N2CCCCC2)CCCCC1` was inactive: 10.1%; that for `CN(C)C1CCCC1OC(=O)C(O)(c1ccccc1)c1ccccc1` (centres undefined) was inactive: -6.94%; that for `CC(C)N1C(=O)CC2(CCN(CCOC(=O)C(O)(c3ccccc3)c3ccccc3)CC2)C1=O` was inactive: 5.34%. As for `O=C(NCC1(N2CCCCC2)CCCCC1)c1cc([N+](=O)[O-])ccc1Cl`, the inhibition was inactive: -1.95%.

On to `CN(C)c1cccc(C(=O)NCC2(N(C)C)CCCCC2)c1`, for which the inhibition is inactive: -2.59%. On to `O=C(OC1CN2CCC1CC2)C(CO)(c1ccccc1)c1ccccc1` (centres undefined), for which the inhibition is inactive: 9.99%.

For the compound `COc1cccc(C(=O)NCC2(N3CCCCC3)CCCCC2)c1`, the inhibition is inactive: 13.1%.
